# Assay results reported in patent US9242993B2, “Morpholino substituted bicyclic pyrimidine urea or carbamate derivatives as mTOR inhibitors” (CELLZOME LIMITED, priority 2011, dated 2016).
# Protein sequences, listed by entry. Tags and fused reporters are not part of them. Lines headed by an entry give the natural chain unless they say otherwise; changes in a name come on top.
# UniProt P42336, whole entry: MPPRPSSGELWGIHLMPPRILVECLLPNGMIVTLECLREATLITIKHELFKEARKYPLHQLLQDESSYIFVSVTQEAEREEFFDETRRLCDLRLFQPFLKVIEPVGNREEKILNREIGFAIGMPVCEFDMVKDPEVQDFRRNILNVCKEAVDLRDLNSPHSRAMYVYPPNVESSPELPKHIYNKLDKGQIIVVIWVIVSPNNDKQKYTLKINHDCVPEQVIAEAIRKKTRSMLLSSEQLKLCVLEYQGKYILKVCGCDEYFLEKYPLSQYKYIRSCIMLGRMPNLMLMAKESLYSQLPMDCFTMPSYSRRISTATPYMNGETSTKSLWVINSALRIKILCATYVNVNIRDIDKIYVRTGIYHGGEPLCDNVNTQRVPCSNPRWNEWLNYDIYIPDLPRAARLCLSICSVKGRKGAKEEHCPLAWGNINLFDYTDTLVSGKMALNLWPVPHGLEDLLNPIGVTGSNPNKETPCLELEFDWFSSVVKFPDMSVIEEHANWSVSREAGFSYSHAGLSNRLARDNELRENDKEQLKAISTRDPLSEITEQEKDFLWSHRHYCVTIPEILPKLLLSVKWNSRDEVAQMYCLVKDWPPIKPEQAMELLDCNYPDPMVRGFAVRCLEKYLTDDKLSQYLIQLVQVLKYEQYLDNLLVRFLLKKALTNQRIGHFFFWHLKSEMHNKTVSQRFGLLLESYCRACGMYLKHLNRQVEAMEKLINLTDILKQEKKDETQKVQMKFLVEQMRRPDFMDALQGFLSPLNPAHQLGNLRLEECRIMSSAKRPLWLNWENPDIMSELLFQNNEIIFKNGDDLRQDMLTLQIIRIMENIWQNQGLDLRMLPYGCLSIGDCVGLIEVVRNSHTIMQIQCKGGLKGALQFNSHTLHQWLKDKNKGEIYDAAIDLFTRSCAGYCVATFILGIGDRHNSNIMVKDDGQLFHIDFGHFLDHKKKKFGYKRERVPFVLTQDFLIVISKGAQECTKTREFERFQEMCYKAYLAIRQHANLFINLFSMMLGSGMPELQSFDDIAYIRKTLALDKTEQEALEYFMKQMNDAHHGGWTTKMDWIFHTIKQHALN
# UniProt P42338: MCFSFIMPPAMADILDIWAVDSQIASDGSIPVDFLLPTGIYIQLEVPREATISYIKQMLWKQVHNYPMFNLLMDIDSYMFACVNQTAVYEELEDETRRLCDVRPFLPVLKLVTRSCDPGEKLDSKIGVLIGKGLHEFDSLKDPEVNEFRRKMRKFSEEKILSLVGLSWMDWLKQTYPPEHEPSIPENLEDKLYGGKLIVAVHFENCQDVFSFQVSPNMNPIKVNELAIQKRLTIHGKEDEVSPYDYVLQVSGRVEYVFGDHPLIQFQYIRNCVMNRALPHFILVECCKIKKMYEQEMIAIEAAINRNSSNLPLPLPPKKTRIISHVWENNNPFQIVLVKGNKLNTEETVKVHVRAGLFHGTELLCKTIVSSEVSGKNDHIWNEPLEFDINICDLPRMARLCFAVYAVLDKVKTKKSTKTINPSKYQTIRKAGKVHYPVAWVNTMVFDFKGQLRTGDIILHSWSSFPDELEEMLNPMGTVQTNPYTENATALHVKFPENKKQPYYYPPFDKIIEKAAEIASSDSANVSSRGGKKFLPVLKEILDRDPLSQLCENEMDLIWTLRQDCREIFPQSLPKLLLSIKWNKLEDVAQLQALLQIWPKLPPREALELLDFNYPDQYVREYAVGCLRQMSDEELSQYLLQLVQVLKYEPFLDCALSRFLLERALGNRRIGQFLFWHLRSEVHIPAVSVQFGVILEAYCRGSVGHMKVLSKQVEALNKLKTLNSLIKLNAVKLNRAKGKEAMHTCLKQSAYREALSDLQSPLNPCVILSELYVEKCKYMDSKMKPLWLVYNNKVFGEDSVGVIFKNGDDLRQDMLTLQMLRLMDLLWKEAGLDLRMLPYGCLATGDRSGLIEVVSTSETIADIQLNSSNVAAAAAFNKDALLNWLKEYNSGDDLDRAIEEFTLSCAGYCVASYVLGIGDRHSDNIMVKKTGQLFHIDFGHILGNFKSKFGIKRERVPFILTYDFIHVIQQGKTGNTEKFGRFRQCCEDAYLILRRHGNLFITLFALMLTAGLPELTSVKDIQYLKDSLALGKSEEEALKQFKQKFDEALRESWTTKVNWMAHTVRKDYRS
# UniProt P48736: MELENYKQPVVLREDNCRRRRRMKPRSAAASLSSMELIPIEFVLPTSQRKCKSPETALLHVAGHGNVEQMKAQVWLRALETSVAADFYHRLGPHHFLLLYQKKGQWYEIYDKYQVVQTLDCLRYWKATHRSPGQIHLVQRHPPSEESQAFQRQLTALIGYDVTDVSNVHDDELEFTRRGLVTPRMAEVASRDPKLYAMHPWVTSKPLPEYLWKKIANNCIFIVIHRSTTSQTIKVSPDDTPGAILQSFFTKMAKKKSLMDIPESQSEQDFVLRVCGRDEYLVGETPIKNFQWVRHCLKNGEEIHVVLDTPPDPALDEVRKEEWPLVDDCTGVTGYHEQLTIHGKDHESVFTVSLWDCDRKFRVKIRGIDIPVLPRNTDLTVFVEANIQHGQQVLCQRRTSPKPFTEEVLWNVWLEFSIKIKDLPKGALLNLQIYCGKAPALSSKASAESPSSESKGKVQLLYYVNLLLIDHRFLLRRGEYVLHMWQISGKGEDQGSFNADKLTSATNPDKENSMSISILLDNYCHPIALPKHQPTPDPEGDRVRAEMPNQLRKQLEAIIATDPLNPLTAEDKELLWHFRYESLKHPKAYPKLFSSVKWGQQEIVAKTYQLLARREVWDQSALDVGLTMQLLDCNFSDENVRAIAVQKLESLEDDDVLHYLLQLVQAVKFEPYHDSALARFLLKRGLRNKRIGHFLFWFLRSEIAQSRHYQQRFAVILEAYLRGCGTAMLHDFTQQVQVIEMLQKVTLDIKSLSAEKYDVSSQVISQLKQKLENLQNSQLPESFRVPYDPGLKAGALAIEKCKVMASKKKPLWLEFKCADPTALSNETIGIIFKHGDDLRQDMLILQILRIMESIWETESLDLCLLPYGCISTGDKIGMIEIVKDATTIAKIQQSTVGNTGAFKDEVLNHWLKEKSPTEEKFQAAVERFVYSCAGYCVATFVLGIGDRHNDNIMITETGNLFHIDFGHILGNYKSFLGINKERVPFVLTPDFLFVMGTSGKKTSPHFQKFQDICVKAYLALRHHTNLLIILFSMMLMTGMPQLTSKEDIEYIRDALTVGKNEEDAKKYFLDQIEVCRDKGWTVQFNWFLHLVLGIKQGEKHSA
# pIC50: −log10 of the molar value.
# Tests used:
# Type in all cases: binding
# [1] = biological target: PI3K alpha (PI3Ka) (Homo sapiens, UniProt P42336); test: kinobeads assay, PI3K alpha; conditions: Jurkat cell lysate, read-out: PI3Ka inhibition value (IC50), activity level
# [2] = biological target: PI3K beta (PI3 Kb) (Homo sapiens, UniProt P42338); test: kinobeads assay, PI3K beta; conditions: Jurkat cell lysate, read-out: PI3Kb inhibition value (IC50), activity level
# [3] = biological target: PI3K gamma (PI3 Kg) (Homo sapiens, UniProt P48736); test: kinobeads assay, PI3K gamma; conditions: Jurkat cell lysate, read-out: PI3Kg inhibition value (IC50), activity level
smiles,measurement,setting,value
"CNC(=O)Nc1ccc(-c2nc(N3CCOC[C@@H]3C)c3c(n2)C(C)(C)S(=O)(=O)C3C)cc1 (stereo partly drawn) [Example 77, 1-methyl-3-(4-(5,7,7-trimethyl-4-((S)-3-methylmorpholino)-6,6-dioxido-5,7-dihydrothieno[3,4-d]pyrimidin-2-yl)phenyl)urea]",pIC50,[1],< 5.00
same,pIC50,[2],< 5.00
"CCNC(=O)Nc1ccc(-c2nc(N3CCOCC3)c3c(n2)C(C)(C)S(=O)(=O)C3)cc1 [Example 76, 1-(4-(7,7-dimethyl-4-morpholino-6,6-dioxido-5,7-dihydrothieno[3,4-d]pyrimidin-2-yl)phenyl)-3-ethylurea]",pIC50,[1],< 5.00
same,pIC50,[2],< 5.00
same,pIC50,[3],< 5.00
"CC1c2c(N3CCOC[C@@H]3C)nc(-c3ccc(NC(=O)NCCF)cc3)nc2C(C)(C)S1(=O)=O (stereo partly drawn) [Example 75, 1-(2-fluoroethyl)-3-(4-(5,7,7-trimethyl-4-((S)-3-methylmorpholino)-6,6-dioxido-5,7-dihydrothieno[3,4-d]pyrimidin-2-yl)phenyl)urea]",pIC50,[3],< 5.00
